Measurements from publication PMC5733478, “A Non-imaging High Throughput Approach to Chemical Library Screening at the Unmodified Adenosine-A3 Receptor in Living Cells” (Frontiers in Pharmacology, 2017).
Structures can show the parent of a compound that is named as a salt.

The chains behind the UniProt entries cited, without tags or fusion partners.
UniProt P0DMS8, whole entry: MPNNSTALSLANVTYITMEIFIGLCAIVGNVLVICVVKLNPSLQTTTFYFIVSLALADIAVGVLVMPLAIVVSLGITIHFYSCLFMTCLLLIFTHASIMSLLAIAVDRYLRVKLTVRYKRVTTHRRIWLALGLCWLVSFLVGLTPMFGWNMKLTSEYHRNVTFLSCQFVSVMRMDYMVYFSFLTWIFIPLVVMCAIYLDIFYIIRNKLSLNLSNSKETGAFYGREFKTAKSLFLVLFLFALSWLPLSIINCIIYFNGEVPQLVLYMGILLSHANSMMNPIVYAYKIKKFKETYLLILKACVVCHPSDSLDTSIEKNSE

target: human A3AR (Homo sapiens, UniProt P0DMS8); assay: LOPAC library primary screen: single concentration (10 μM) inhibition of 25 nM CA200645 binding, PHERAstar FS

SMILES | % 25 nM CA200645 binding | % Total CA200645 binding
CCCn1c(=O)c2[nH]c(C3CCCC3)nc2n(CCC)c1=O [8-Cyclopentyl-1,3-dipropylxanthine] | 56.3 ± 3.4% | 
CNC(=O)[C@H]1O[C@@H](n2cnc3c(NCc4cccc(I)c4)nc(Cl)nc32)[C@H](O)[C@@H]1O [2-Cl-IB-MECA, reference compound] |  | 32.3 ± 6.1%
CCCn1c(=O)c2[nH]c(C3CCCC3)nc2n(CCC)c1=O [DPCPX, reference compound] |  | 56.3 ± 3.4%
CCNC(=O)[C@H]1O[C@@H](n2cnc3c(N)ncnc32)[C@H](O)[C@@H]1O [5'-N-Ethylcarboxamidoadenosine] | 38.1 ± 4.3% | 
CC(Cc1ccc(O)cc1)NCC(O)c1cc(O)cc(O)c1 (stereo not drawn) [Fenoterol hydrobromide] | 81.9 ± 17.1% | 
CN(C)CCOC(c1ccccc1)c1ccccc1 [Diphenhydramine hydrochloride] | 101.8 ± 15.9% | 
CCNC(=O)[C@H]1O[C@@H](n2cnc3c(N)nc(NCCc4ccc(CCC(=O)O)cc4)nc32)[C@H](O)[C@@H]1O.Cl [CGS-21680 hydrochloride] | 65.7 ± 8.4% | 
CNC(=O)[C@H]1O[C@@H](n2cnc3c(NCc4cccc(I)c4)nc(Cl)nc32)[C@H](O)[C@@H]1O [Chloro-IB-MECA] | 32.3 ± 6.1% | 
CCNC(=O)[C@H]1O[C@@H](n2cnc3c(N)ncnc32)[C@H](O)[C@@H]1O [NECA, reference compound] |  | 38.1 ± 4.3%
